Laboratory results reported in US7192924B2, “Corticotropin releasing factor 2 receptor agonists” (priority 2002, dated 2007).
Like-named read-outs stand apart in the source and are kept apart here.

How the values were obtained:
CRF2R = target: T1, CRF2R (Homo sapiens, UniProt Q13324); test: CRF2R agonist activity (EC50, Emax), called comparative CRF binding; format: cell-based
T1 sequence (Q13324 1-411): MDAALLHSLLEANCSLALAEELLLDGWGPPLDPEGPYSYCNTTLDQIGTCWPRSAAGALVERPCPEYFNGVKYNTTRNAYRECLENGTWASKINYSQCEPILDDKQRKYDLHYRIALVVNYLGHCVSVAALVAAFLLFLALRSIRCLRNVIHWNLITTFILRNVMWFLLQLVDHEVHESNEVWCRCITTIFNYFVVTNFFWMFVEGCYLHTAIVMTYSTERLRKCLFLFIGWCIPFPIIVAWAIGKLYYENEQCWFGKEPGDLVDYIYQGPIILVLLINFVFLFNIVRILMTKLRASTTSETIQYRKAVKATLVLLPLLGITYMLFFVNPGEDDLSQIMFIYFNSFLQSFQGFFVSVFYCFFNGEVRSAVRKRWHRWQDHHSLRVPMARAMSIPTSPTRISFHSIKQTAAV
Summary of the method: (§1)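 Cells expressing only CRF1R or only CRF2R (or recombinant receptor) are contacted with peptide or vehicle control. Receptor activation is read as cAMP induction, measured in cell lysates or via a cAMP-responsive-element reporter gene such as luciferase.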

CRF1R = target: T2, CRF1R (Homo sapiens, UniProt P34998); test: CRF1R agonist activity (EC50, Emax), called comparative CRF binding; format: cell-based
T2 sequence (P34998 24-415): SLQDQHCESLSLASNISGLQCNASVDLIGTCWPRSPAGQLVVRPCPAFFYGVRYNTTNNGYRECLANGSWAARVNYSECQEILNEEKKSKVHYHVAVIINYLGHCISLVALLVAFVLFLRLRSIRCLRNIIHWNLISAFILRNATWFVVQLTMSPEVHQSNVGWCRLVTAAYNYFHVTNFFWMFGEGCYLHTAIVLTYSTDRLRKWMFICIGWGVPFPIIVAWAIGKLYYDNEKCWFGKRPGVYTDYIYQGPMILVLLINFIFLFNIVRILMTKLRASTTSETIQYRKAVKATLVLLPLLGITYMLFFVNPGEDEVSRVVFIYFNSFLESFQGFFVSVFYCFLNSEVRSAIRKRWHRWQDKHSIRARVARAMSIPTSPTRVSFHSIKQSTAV
Summary of the method: as §1

| SMILES | EC50 (CRF2R; read-out: CRF2R EC50) [µM] | EC50 (CRF1R; read-out: CRF1R EC50) [µM] | EC50 (CRF2R) [µM] | EC50 (CRF1R) [µM] |
| --- | --- | --- | --- | --- |
| CC[C@H](C)[C@H](NC(=O)[C@H](CCCNC(=N)N)NC(=O)[C@H](C)NC(=O)[C@H](CC(N)=O)NC(=O)[C@@H](NC(=O)[C@@H](NC(=O)[C@H](C)NC(=O)[C@H](CCC(N)=O)NC(=O)[C@H](CCC(N)=O)NC(=O)[C@H](CCCCN)NC(=O)[C@H](CCC(=O)O)NC(=O)[C@H](CCCCN)NC(=O)[C@H](CCC(=O)O)NC(=O)[C@H](CCC(N)=O)NC(=O)[C@H](CCCCN)NC(=O)[C@H](CCC(=O)O)NC(=O)[C@@H](NC(=O)[C@H](CCC(=O)O)NC(=O)[C@@H](NC(=O)[C@H](CCSC)NC(=O)[C@H](CCCCN)NC(=O)[C@H](CCCNC(=N)N)NC(=O)[C@H](CC(C)C)NC(=O)[C@H](CC(C)C)NC(=O)[C@H](CCC(=O)O)NC(=O)[C@H](CC(C)C)NC(=O)[C@H](CO)NC(=O)[C@H](CC(C)C)NC(=O)[C@H](CC(=O)O)NC(=O)[C@@H](NC(=O)[C@H](CO)NC(=O)[C@@H](NC(=O)[C@@H]1CCCN1C(=O)[C@@H]1CCCN1C(=O)CNC(=O)[C@@H]1CCC(=O)N1)[C@@H](C)CC)[C@@H](C)CC)[C@@H](C)CC)[C@@H](C)CC)[C@@H](C)O)[C@@H](C)O)C(=O)N[C@@H](CC(C)C)C(=O)N[C@@H](C)C(=O)N[C@@H](CCCNC(=N)N)C(=O)N[C@H](C(N)=O)C(C)C [compound 142] | 0.00908 | 0.0435 |  |  |
| CC[C@H](C)[C@H](NC(=O)[C@@H](NC(=O)[C@H](CC(=O)O)NC(=O)[C@H](CC(C)C)NC(=O)[C@H](CC(C)C)NC(=O)[C@H](CC(C)C)NC(=O)[C@H](CCCNC(=N)N)NC(=O)[C@H](CC(N)=O)NC(=O)[C@H](CC(N)=O)NC(=O)[C@H](C)NC(=O)[C@H](C)NC(=O)[C@H](CCC(N)=O)NC(=O)[C@H](CCC(N)=O)NC(=O)[C@H](CCCCN)NC(=O)[C@H](CCC(=O)O)NC(=O)[C@H](CCCCN)NC(=O)[C@H](CCC(=O)O)NC(=O)[C@H](CCC(N)=O)NC(=O)[C@H](CCCCN)NC(=O)[C@H](CCC(=O)O)NC(=O)[C@@H](NC(=O)[C@H](CCC(=O)O)NC(=O)[C@@H](NC(=O)[C@H](CCSC)NC(=O)[C@H](CCCCN)NC(=O)[C@H](CCCNC(=N)N)NC(=O)[C@H](CC(C)C)NC(=O)[C@H](CC(C)C)NC(=O)[C@@H](NC(=O)[C@H](CCC(N)=O)NC(=O)[C@@H]1CCCN1C(=O)[C@H](CC(C)C)NC(=O)[C@H](CC(=O)O)NC(=O)[C@@H](NC(=O)[C@H](CO)NC(=O)[C@@H](NC(=O)[C@@H]1CCCN1C(=O)[C@@H]1CCCN1C(=O)CNC(=O)[C@@H]1CCC(=O)N1)[C@@H](C)CC)[C@@H](C)CC)[C@@H](C)CC)[C@@H](C)CC)[C@@H](C)CC)[C@@H](C)O)C(N)=O [compound 199] |  |  | 0.0085 | 0.707 |
| CC[C@H](C)[C@H](NC(=O)[C@@H](NC(=O)[C@H](CC(=O)O)NC(=O)[C@H](CC(C)C)NC(=O)[C@H](CC(C)C)NC(=O)[C@H](CC(C)C)NC(=O)[C@H](CCCNC(=N)N)NC(=O)[C@H](CC(N)=O)NC(=O)[C@H](CC(N)=O)NC(=O)[C@H](C)NC(=O)[C@H](C)NC(=O)[C@H](CCC(N)=O)NC(=O)[C@H](CCC(N)=O)NC(=O)[C@H](CCCCN)NC(=O)[C@H](CCC(=O)O)NC(=O)[C@H](CCCCN)NC(=O)[C@H](CCC(=O)O)NC(=O)[C@H](CCC(N)=O)NC(=O)[C@H](CCCCN)NC(=O)[C@H](CCC(=O)O)NC(=O)[C@@H](NC(=O)[C@H](CCC(=O)O)NC(=O)[C@@H](NC(=O)[C@H](CCSC)NC(=O)[C@H](CCCCN)NC(=O)[C@H](CCCNC(=N)N)NC(=O)[C@H](CC(C)C)NC(=O)[C@H](CC(C)C)NC(=O)[C@H](Cc1ccccc1)NC(=O)[C@@H](NC(=O)[C@@H]1CCCN1C(=O)[C@H](CC(C)C)NC(=O)[C@H](CC(=O)O)NC(=O)[C@@H](NC(=O)[C@H](CO)NC(=O)[C@@H](NC(=O)[C@@H]1CCCN1C(=O)[C@@H]1CCCN1C(=O)CNC(=O)[C@@H]1CCC(=O)N1)[C@@H](C)CC)[C@@H](C)CC)[C@@H](C)CC)[C@@H](C)CC)[C@@H](C)CC)[C@@H](C)O)C(N)=O [compound 29] |  |  | 0.016 | > 1 |
| CC[C@H](C)[C@H](NC(=O)[C@@H](NC(=O)[C@H](CC(=O)O)NC(=O)[C@H](CC(C)C)NC(=O)[C@H](CC(C)C)NC(=O)[C@H](CC(C)C)NC(=O)[C@H](CCCNC(=N)N)NC(=O)[C@H](CC(N)=O)NC(=O)[C@H](CC(N)=O)NC(=O)[C@H](C)NC(=O)[C@H](C)NC(=O)[C@H](CCC(N)=O)NC(=O)[C@H](CCC(N)=O)NC(=O)[C@H](CCCCN)NC(=O)[C@H](CCC(=O)O)NC(=O)[C@H](CCCCN)NC(=O)[C@H](CCC(=O)O)NC(=O)[C@H](CCC(N)=O)NC(=O)[C@H](CCCCN)NC(=O)[C@H](CCC(=O)O)NC(=O)[C@@H](NC(=O)[C@H](CCC(=O)O)NC(=O)[C@@H](NC(=O)[C@@H](NC(=O)[C@H](CCCCN)NC(=O)[C@H](CCCNC(=N)N)NC(=O)[C@H](CC(C)C)NC(=O)[C@H](CC(C)C)NC(=O)[C@@H](NC(=O)[C@H](CCC(N)=O)NC(=O)[C@@H]1CCCN1C(=O)[C@H](CC(C)C)NC(=O)[C@H](CC(=O)O)NC(=O)[C@@H](NC(=O)[C@H](CO)NC(=O)[C@@H](NC(=O)[C@@H]1CCCN1C(=O)[C@@H]1CCCN1C(=O)CNC(=O)[C@@H]1CCC(=O)N1)[C@@H](C)CC)[C@@H](C)CC)[C@@H](C)CC)C(C)C)[C@@H](C)CC)[C@@H](C)CC)[C@@H](C)O)C(N)=O [compound 293] |  |  | 0.0403 | 0.52 |
| CC[C@H](C)[C@H](NC(=O)[C@@H](NC(=O)[C@H](CC(=O)O)NC(=O)[C@H](CC(C)C)NC(=O)[C@H](CC(C)C)NC(=O)[C@H](CCCNC(=N)N)NC(=O)[C@H](C)NC(=O)[C@H](CC(N)=O)NC(=O)[C@H](CC(N)=O)NC(=O)[C@H](C)NC(=O)[C@H](C)NC(=O)[C@H](CCC(N)=O)NC(=O)[C@H](CCC(N)=O)NC(=O)[C@H](CCCCN)NC(=O)[C@H](CCC(=O)O)NC(=O)[C@H](CCCCN)NC(=O)[C@H](CCC(=O)O)NC(=O)[C@H](CCC(N)=O)NC(=O)[C@H](CCCCN)NC(=O)[C@H](CCC(=O)O)NC(=O)[C@@H](NC(=O)[C@H](CCC(=O)O)NC(=O)[C@@H](NC(=O)[C@@H](NC(=O)[C@H](CCCCN)NC(=O)[C@H](CCCNC(=N)N)NC(=O)[C@H](CC(C)C)NC(=O)[C@H](CC(C)C)NC(=O)[C@H](CCC(N)=O)NC(=O)[C@H](Cc1ccc(O)cc1)NC(=O)[C@@H]1CCCN1C(=O)[C@@H](NC(=O)[C@H](CC(=O)O)NC(=O)[C@@H](NC(=O)[C@H](CO)NC(=O)[C@@H](NC(=O)[C@@H]1CCCN1C(=O)[C@@H]1CCCN1C(=O)CNC(=O)[C@@H]1CCC(=O)N1)[C@@H](C)CC)[C@@H](C)CC)C(C)C)C(C)C)[C@@H](C)CC)[C@@H](C)CC)[C@@H](C)O)C(N)=O [compound 374] |  |  | 0.0158 | ≥ 1 |
